For the test, the target named is JAK3 enzyme (Homo sapiens (Human), UniProt P52333). The experiment in a line: JAK3 isolated enzyme high ATP Caliper endpoint assay. Type of test: biochemical. Particulars: 400 μM ATP, read-out: JAK-3 IC50.

The chains behind the UniProt entries cited, without tags or fusion partners. Where a name states a change or a piece, a line headed by the entry shows the natural chain unless it says otherwise.
UniProt P52333: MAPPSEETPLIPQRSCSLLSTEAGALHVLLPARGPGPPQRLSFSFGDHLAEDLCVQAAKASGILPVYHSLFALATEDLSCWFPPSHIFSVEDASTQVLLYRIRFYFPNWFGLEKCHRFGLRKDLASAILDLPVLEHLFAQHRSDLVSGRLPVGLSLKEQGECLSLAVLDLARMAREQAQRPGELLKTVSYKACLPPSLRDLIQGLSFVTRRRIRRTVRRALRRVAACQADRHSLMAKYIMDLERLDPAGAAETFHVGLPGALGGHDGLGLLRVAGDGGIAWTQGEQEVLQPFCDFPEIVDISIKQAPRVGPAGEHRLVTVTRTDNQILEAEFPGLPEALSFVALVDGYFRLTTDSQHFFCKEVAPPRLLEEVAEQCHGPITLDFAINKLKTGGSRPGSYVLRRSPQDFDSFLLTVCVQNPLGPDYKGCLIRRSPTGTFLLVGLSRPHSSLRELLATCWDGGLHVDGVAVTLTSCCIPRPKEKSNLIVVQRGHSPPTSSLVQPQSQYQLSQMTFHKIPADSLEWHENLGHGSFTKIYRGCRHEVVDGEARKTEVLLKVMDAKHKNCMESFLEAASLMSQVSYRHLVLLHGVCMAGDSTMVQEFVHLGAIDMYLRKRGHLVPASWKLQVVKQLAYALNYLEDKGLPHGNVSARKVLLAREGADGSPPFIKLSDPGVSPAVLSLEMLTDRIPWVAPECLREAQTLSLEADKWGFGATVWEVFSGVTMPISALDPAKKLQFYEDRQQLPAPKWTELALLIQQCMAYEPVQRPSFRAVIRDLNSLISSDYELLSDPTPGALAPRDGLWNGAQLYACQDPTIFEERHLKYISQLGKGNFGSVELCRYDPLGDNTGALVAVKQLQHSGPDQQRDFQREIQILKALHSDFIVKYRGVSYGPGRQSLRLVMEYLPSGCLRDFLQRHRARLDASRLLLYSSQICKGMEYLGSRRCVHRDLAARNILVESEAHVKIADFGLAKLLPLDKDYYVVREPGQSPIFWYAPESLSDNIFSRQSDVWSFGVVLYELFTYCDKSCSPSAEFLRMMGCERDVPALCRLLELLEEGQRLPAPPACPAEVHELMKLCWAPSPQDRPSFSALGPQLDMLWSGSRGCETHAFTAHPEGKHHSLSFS

On to “{2-[6-(2-Ethyl-5-fluoro-4-hydroxy-phenyl)-1H-indazol-3-yl]-1,4,6,7-tetrahydro-imidazo[4,5-c]pyridin-5-yl}-isothiazol-3-yl-methanone [Example 3]”, for which the IC50 – broadly, the concentration that gives 50% inhibition – amounted to 1 nM.

The record behind these values is US8895544B2, “Indazoles” (Pfizer Limited, priority 2011, dated 2014).
